We go through one compound from ChEMBL document CHEMBL1133280, “Discovery and synthesis of a potent sulfonamide ET(B) selective antagonist” (Bioorg Med Chem Lett, 2000).

The chains behind the UniProt entries cited, without tags or fusion partners.
UniProt P26684, whole entry: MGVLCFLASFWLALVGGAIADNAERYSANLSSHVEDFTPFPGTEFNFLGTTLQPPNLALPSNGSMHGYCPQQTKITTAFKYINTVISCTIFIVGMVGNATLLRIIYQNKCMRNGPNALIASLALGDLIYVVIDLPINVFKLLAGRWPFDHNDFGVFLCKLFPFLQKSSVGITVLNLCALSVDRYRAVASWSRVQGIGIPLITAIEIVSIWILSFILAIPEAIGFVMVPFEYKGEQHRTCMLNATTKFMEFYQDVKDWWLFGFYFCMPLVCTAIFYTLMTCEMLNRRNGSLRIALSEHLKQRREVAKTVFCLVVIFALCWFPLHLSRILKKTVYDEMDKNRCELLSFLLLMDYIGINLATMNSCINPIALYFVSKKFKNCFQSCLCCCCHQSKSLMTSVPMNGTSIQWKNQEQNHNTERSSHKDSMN

This assay deals with Endothelin-1 receptor (Rattus norvegicus, UniProt P26684). Briefly: Displacement of [125 I] ET-1 from rat aortic smooth muscle A7r5 cells transfected with Endothelin A receptor. In kind it is cell-based.

`Cc1cc(NS(=O)(=O)c2ccc(N)cc2)no1` [SULFAMETHOXAZOLE] yielded an IC50 of 333 µM.

The IC50 is the concentration at which inhibition is half-maximal. Read a high IC50 as a need for much substance.
